# Results reported in US6924302B2, “Substituted triazole diamine derivatives as kinase inhibitors” (Ortho McNeil Pharmaceutical, Inc., priority 2000, dated 2005).
# Sequences of proteins named here, by UniProt entry; tags and fusion partners are left off. Residues count along the entry.
# UniProt O08775, 786-1343: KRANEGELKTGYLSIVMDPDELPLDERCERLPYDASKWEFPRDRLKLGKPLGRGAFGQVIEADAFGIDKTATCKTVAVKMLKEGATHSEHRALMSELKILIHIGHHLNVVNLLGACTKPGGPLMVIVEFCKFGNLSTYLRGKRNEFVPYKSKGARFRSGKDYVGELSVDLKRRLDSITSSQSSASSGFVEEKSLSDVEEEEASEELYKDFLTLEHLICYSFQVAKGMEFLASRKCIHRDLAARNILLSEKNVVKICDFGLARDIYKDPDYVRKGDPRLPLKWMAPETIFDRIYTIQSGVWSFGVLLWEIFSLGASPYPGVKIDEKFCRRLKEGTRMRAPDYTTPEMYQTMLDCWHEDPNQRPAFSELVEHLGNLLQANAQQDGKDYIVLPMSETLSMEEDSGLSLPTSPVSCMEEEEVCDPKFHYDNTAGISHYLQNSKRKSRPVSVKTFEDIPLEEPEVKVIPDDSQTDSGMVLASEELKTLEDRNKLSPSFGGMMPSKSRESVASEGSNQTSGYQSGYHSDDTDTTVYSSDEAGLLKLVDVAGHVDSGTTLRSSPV
# UniProt P06213, 980-1352: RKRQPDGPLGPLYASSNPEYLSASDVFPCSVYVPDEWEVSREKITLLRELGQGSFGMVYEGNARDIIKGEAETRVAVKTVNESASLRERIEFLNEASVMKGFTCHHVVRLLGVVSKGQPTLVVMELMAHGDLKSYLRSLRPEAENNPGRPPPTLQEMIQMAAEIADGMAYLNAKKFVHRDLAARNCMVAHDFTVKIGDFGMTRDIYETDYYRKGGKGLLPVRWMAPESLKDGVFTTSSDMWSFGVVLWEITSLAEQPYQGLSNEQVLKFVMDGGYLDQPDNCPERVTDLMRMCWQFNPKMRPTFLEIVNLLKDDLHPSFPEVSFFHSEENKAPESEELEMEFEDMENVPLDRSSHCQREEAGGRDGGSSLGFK
# Tests used:
# Format in all cases: biochemical
# [1] = molecular target: T1, VEGF-R (vascular endothelial growth factor receptor-2) (Rattus norvegicus, UniProt O08775); test: VEGF-R Screening Assay
# T1 construct: polyhistidine (6xHIS) (N)
# Experimental: 70 μL of the kinase reaction mixture was dispensed into the well of a streptavidin coated FlashPlate™ (Cat. # SMP103, NEN, Boston, Mass.). Then 1 μL of test compound stock in 100% DMSO was added to the wells resulting in a final concentration of 1% DMSO in the reaction with a 100 μL final reaction volume. Next, soluble rat tyrosine kinase containing an N-terminal 6×HIS tag was diluted in 50 mM Tris-HCl pH=8.0, 0.1% BSA at a concentration of 5 ng per μL and 30 μL (150 ng enzyme per test well) was added to each well to initiate the reaction. The reaction was incubated for one hour at 30° C. At the end of the 1-hour incubation, the reaction was terminated by aspirating the reaction mixture from the plate and washing the wells twice with PBS containing 100 mM EDTA. The PLC1 biotinylated peptide substrate became immobilized on the Flashplate™ and the incorporation of ^33P-γ-ATP was measured by reading the plate on a scintillation counter. Inhibition of the enzymatic activity of the VEGF-R was measured by observing a reduced amount of ^33P-γ-ATP incorporated into the immobilized peptide.
# (§1) Assays to test compound inhibition of other kinases were preformed using methods that measure the amount of phosphorylation of a biotinylated peptide substrate. Biotinylated peptide substrates were selected from the literature as appropriate for the enzyme being evaluated. […] Assay conditions vary slightly for each protein kinase, for example, insulin receptor kinase requires 10 mM MnCl2 for activity and Calmodulin-dependent protein kinase requires calmodulin and 10 mM CaCl2. These assay conditions are known in the art. […] The plate was read on a scintillation counter to determine ^33P-γ-ATP incorporated into the immobilized peptide. […] A maximum and minimum signal for the assay was determined on each plate. The IC50 was calculated from the dose response curve of the percent inhibition of the maximum signal in the assay according to the formula [max signal—background/test compound signal—background (100)=% inhibition] by graphing the percent inhibition against the log concentration of test compound. […]
# Insulin Receptor Kinase = Insulin Receptor Kinase (Homo sapiens, UniProt P06213); test: Kinase Selectivity Assay Insulin Receptor Kinase
# Experimental: as §1, with “art. The reaction mixture was dispensed into the wells of a streptavidin coated Flashplate and 1 μl drug stock in 100% DMSO was added to a 100 μl reaction volume resulting in a final concentration of 1% DMSO on the reaction. Enzyme was diluted in 50 mM Tris-HCl pH=8.0, 0.1% BSA and add to each well. The reaction was incubated for one hour at 30° C. in the presence of compound.” for “art.”
# [2] = molecular target: T2, Casein Kinase 1 (CK1 delta isoform) (Rattus norvegicus, UniProt Q06486); test: Kinase Selectivity Assay Casein Kinase 1
# T2 construct: a truncation at amino acid 318 of the C-terminal portion of the rat CK1 delta isoform; purchased New England Biolabs 6030; host or cells: E. coli
# T2 sequence (Q06486 1-317): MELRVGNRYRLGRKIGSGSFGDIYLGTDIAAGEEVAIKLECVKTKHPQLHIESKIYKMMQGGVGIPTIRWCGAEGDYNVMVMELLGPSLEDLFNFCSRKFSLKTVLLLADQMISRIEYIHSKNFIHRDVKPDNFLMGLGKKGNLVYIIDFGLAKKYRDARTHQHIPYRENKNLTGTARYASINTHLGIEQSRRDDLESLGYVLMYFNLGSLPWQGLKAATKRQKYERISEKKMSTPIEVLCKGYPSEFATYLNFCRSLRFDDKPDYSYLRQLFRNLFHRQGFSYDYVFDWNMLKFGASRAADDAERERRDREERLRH
# Experimental: as §1, with “art. The reaction mixture was dispensed into the wells of a streptavidin coated Flashplate and 1 μl drug stock in 100% DMSO was added to a 100 μl reaction volume resulting in a final concentration of 1% DMSO on the reaction. Enzyme was diluted in 50 mM Tris-HCl pH=8.0, 0.1% BSA and add to each well. The reaction was incubated for one hour at 30° C. in the presence of compound.” for “art.”
structure (smiles),measurement,setting,value
"Cc1ccsc1C(=O)n1nc(Nc2ccc(S(N)(=O)=O)cc2)nc1N [Cpd 15, 4-[[5-amino-1-[(3-methyl-2-thienyl)carbonyl]-1H-1,2,4-triazol-3-yl]amino]-benzenesulfonamide]",IC50,"[1]; VEGF-R IC50, Kinase Selectivity, Tables 2a-2k",51 nM
same,IC50,"[1]; VEGF-R IC50, Table 1",51.1 nM
"Nc1nc(Nc2ccc(S(N)(=O)=O)cc2)nn1C(=S)Nc1c(F)cccc1F [Cpd 66, 5-amino-3-[[4-(aminosulfonyl)phenyl]amino]-N-(2,6-difluorophenyl)-1H-1,2,4-triazole-1-carbothioamide]",IC50,"[1]; VEGF-R IC50, Table 1",32 nM
"Cc1ccc(F)c(C(=O)n2nc(Nc3ccc(S(N)(=O)=O)cc3)nc2N)c1F [Cpd 2, 4-[[5-amino-1-(2,6-difluoro-3-methylbenzoyl)-1H-1,2,4-triazol-3-yl]amino]-benzenesulfonamide]",IC50,Insulin Receptor Kinase,9800 nM
"Cc1cc(C)c(C(=O)n2nc(Nc3ccc(S(N)(=O)=O)cc3)nc2N)s1 [Cpd 33, 4-[[5-amino-1-[(3,5-dimethyl-2-thienyl)carbonyl]-1H-1,2,4-triazol-3-yl]amino]-benzenesulfonamide]",IC50,[2],104 nM
